Measured values from PMC5933747 (PLoS ONE, 2018).

How the values were obtained:
Assay type in all cases: cell-based
[1] = molecular target: T1, human NaV1.7 (Homo sapiens, UniProt Q15858); assay: PatchXpress (PX) automated electrophysiology, human NaV1.7 in HEK293 cells; conditions: PX platform, voltage protocol with 20% of channels inactivated, at least ten cells, two to three data points per concentration
[2] = molecular target: T1, human NaV1.7; assay: Manual whole cell patch clamp, human NaV1.7; conditions: read-out: NaV1.7 IC50
[3] = molecular target: T1, human NaV1.7; assay: IonWorks Quattro (IWQ) electrophysiology, human NaV1.7; conditions: IWQ platform; single-residue Ala scan of JzTx-V; read-out: Ala mutant IWQ IC50 NaV1.7

For JzTx-V(1–29) [reference compound], the IC50 [1] was 0.63 ± 0.17 nM, the IC50 [2] was 0.15 ± 0.05 nM and the IC50 [3] was 16 nM.
